Only a part of the results on these compounds is given; other tests are left out.

This is an account of results in patent US9706755B2, “Controlled odor mimic permeation system” (dated 2017).

Series [1] can be described thus: Permeation of odor compounds through 2.0 mil LDPE bags (gravimetric). The settings on record: gradient of mass loss over time.
The conditions of series [2]: cited from earlier work.
Series [3] deals with trained and certified explosives detection canines. The series is described as follows: Canine field trials, active odor determination (odor line-up of hide boxes). The settings on record: for % Alert: Scratch Box.
Series [4] can be described thus: Permeation of odor compounds through different polymer chemistries (gravimetric). The conditions noted are these: 25.0 mg on gauze; LDPE 1.5-4.0 mil, polypropylene, cellophane, Kapak; 1 month.
Series [5] has as its system previously trained explosive detection canines. Briefly: First field test of silica TNT mimic aid, previously trained dogs (Table 91). The conditions noted are these: 1.25 g 2,4-dinitrotoluene as 25 g silica COMPS TNT aid in 2.0 mil LDPE.
[6] abbreviates: Table 52, 100 μl at 1000 ppm Acetonitrile on Cotton in LDPE, 6 canines.
Setting [7] is: Table 53, 100 μl at 1000 ppm Acetonitrile on Cotton in Open Vial, 11 canines.
The mark [8] stands for this setting: Table 53 field experiment, 100 ug total.

With `Cc1c([N+](=O)[O-])cccc1[N+](=O)[O-]`, the “permeation rate through LDPE” value in series [1] is 155.6 pg/s.
For `O=[N+]([O-])OCCO[N+](=O)[O-]`, the “Vapour Pressure at 25° C.” value in series [2] was 7.0 × 10^−2 torr.
With `Cc1c([N+](=O)[O-])cc([N+](=O)[O-])cc1[N+](=O)[O-]`, the “Vapour Pressure at 25° C.” value in series [2] was 5.8 × 10^−6 torr. The “% Alert” value in series [3] (setting [6]) turned out to be 33.3%; in series [3] (setting [7]) it was 45.4%. Further, in series [3] (Table 54, 5.0 mg), the “alerts (canines alerting / canines tested)” value is 0/9.
Turning to `CN(c1c([N+](=O)[O-])cc([N+](=O)[O-])cc1[N+](=O)[O-])[N+](=O)[O-]`, in series [2], the “Vapour Pressure at 25° C.” value is reported as 5.7 × 10^−9 torr.
With `Cc1ccc([N+](=O)[O-])cc1[N+](=O)[O-]`, in series [4], the “permeation through different polymers (qualitative)” value is given as “no noticeable difference in the rate of loss”. In series [1], the “permeation rate through LDPE” value stood at 80.36 pg/s. Also, the figures for the “% Alert” value in series [3] (setting [6]) and in series [3] (setting [7]) were 50.0% and 9.1%, respectively. Besides, the “alerts (canines alerting / canines tested)” value is given as 1/11 in series [3] (setting [8]); 0/9 in series [3] (Table 54, 5.0 mg); 7/10 in series [5]. The “interests (canines showing interest / canines tested)” value in series [3] (setting [8]) was 5/11; in series [5], 2/10. Further, in series [3] (Table 64, 1.0 g), the “positive responses of canines” value is “no positive responses”.
In the case of `O=[N+]([O-])c1cc([N+](=O)[O-])c(O)c([N+](=O)[O-])c1`, in series [2], the “Vapour Pressure at 25° C.” value was 5.8 × 10^−9 torr.
Regarding `O=[N+]([O-])OCC(CO[N+](=O)[O-])(CO[N+](=O)[O-])CO[N+](=O)[O-]`, the “Vapour Pressure at 25° C.” value in series [2] is listed as 1.4 × 10^−8 torr.
`O=[N+]([O-])c1cccc([N+](=O)[O-])c1`: the “permeation rate through LDPE” value in series [1] worked out at 117.4 pg/s. Besides, the “% Alert” value in series [3] (setting [6]) is reported as 50.0%. Also, the “% Alert” value in series [3] (setting [7]) is given as 27.3%. For the same compound, in series [3] (setting [8]), the “alerts (canines alerting / canines tested)” value is given as 3/11 and the “interests (canines showing interest / canines tested)” value is reported as 1/11. Besides, the “responses (canines responding / canines tested)” value in series [3] (Table 54, 5.0 mg) is 0/9.
